# System: patients with acute anterior STEMI
# Test: DELTA MI trial: intracoronary KAI-9803 during primary PCI for acute anterior STEMI
# Conditions: intracoronary injection during primary PCI for STEMI
# Procedure: Safety and biomarker end points were assessed.
# The following example is a clinical treatment of acute ST-elevation myocardial infarction (STEMI) using the compositions and methods provided in the invention.
# Patients were recommended to receive aspirin (162-325 mg orally), a thienopyridine loading dose (clopidogrel 300-600 mg or ticlopidine 500 mg), unfractionated heparin, and glycoprotein IIb-IIIa inhibitors during PCI. […] After verifying the final angiographic inclusion criteria during diagnostic angiography, randomization and study drug preparation occurred in the catheterization laboratory before the beginning of the PCI procedure.
# Study drug was reconstituted into a clear solution at 1 of 4 concentrations using serial dilutions with 0.9% sodium chloride solution. Study drug was administered during PCI in the following sequence. First, the guidewire was passed across the obstruction in the left anterior descending (LAD) infarct vessel and an over-the-wire balloon catheter was positioned at the level of the obstruction. Second, the guidewire was removed, and dilute contrast was injected to confirm positioning of the catheter tip downstream from the obstruction and to assess patency of the distal vessel. […] Fourth, the guidewire was readvanced through the catheter into the distal vessel, and the balloon was deflated. […]
compound,measurement,value
CC(C)C[C@H](NC(=O)[C@H](CO)NC(=O)CNC(=O)[C@H](CC(C)C)NC(=O)[C@H](CCC(=O)O)NC(=O)[C@H](Cc1ccc(O)cc1)NC(=O)[C@H](CO)NC(=O)[C@H](CC(N)=O)NC(=O)[C@H](Cc1ccccc1)NC(=O)[C@H](CO)NC(=O)[C@@H](N)CSSC[C@H](N)C(=O)N[C@@H](Cc1ccc(O)cc1)C(=O)NCC(=O)N[C@@H](CCCNC(=N)N)C(=O)N[C@@H](CCCCN)C(=O)N[C@@H](CCCCN)C(=O)N[C@@H](CCCNC(=N)N)C(=O)N[C@@H](CCCNC(=N)N)C(=O)N[C@@H](CCC(N)=O)C(=O)N[C@@H](CCCNC(=N)N)C(=O)N[C@@H](CCCNC(=N)N)C(=O)N[C@@H](CCCNC(=N)N)C(=O)O)C(=O)O [KAI-9803],safety and tolerability profile,acceptable safety and tolerability profile
